{"source": "patent US20260382587A1", "about": "“DYCLONINE FOR USE IN THE TOPICAL TREATMENT OF HAND-FOOT SYNDROME” (published 2026)", "key": {"[1]": {"test": "topical treatment of patients suffering from palmo-plantar erythrodysesthesia (hand-foot syndrome), Examples 1-6", "text": "In the present invention, the term “hand-foot syndrome” (also called “palmo-plantar erythrodysesthesia”) refers to a skin reaction on the palms of the hands and/or the soles of the feet as a result of certain cancer treatments. Grading of hand-foot syndrome according to the CTCAE (Common Terminology Criteria for Adverse Events) is as follows:\nA patient suffered from a metastatic pancreatic cancer. They developed a severe and painful palmo-plantar erythrodysesthesia under FOLFIRINOX therapy with painful onycholysis with oozing, paronychia, skin desquamation and neuropathic pain.\n(§1) They were treated with a cream of dyclonine 4% applied locally twice a day.\nA patient suffered from pancreatic cancer. They developed a severe and painful palmo-plantar erythrodysesthesia under FOLFIRINOX therapy with painful nail detachment, hyperkeratosis, skin desquamation, neuropathic pain.\nas §1\nA patient suffered from breast cancer. They developed a painful palmo-plantar erythrodysesthesia under taxane therapy with painful onycholysis (hands and feet), hyperkeratosis and neuropathic pain.\nA patient suffered from colon cancer. They developed a painful palmo-plantar erythrodysesthesia under capecitabine therapy with painful onycholysis (hands and feet), hyperkeratosis and neuropathic pain.\n(§2) A patient suffered from breast cancer. They developed a painful palmo-plantar erythrodysesthesia under xeloda (capecitabine) therapy.\nThey were treated with a cream of dyclonine 6% applied locally twice a day.\nas §2"}, "sodium channel": {"system": "sodium channel", "details": "role: inhibitor; topical anesthesia to mucous membranes; cited from earlier work"}, "[2]": {"system": "cancer and multiple myeloma cells", "details": "in combination with proteasome inhibitors; cited from earlier work"}, "[3]": {"details": "Example 1, cream of dyclonine 4%, applied locally twice a day, metastatic pancreatic cancer, FOLFIRINOX, after 1 month of use"}, "[4]": {"details": "Example 2, cream of dyclonine 4%, applied locally twice a day, pancreatic cancer, FOLFIRINOX, after 3 weeks of use"}, "[5]": {"details": "Example 3, cream of dyclonine 4%, applied locally twice a day, breast cancer, taxane therapy, after 3 weeks of use"}, "[6]": {"details": "Example 4, cream of dyclonine 4%, applied locally twice a day, colon cancer, capecitabine, after 1 month of use"}, "[7]": {"details": "Example 5, cream of dyclonine 6%, applied locally twice a day, breast cancer, xeloda (capecitabine), after 1 month of use"}, "[8]": {"details": "Example 6, cream of dyclonine 4%, applied locally twice a day, breast cancer, xeloda (capecitabine), after 3 months of use"}}, "data": [{"smiles": "CCCCOc1ccc(C(=O)CCN2CCCCC2)cc1", "values": [{"measurement": "improvement of the patient", "setting": "[1]; [3]", "result": "improvement"}, {"measurement": "oozing lesions under the nails", "setting": "[1]; [3]", "result": "drying"}, {"measurement": "pain", "setting": "[1]; [3]", "result": "almost complete disappearance"}, {"measurement": "paronychia", "setting": "[1]; [3]", "result": "great improvement"}, {"measurement": "hyperkeratosis", "setting": "[1]; [4]", "result": "disappearance"}, {"measurement": "improvement of the patient", "setting": "[1]; [4]", "result": "improvement"}, {"measurement": "neuropathic pain", "setting": "[1]; [4]", "result": "improvement"}, {"measurement": "skin desquamation", "setting": "[1]; [4]", "result": "improvement"}, {"measurement": "hyperkeratosis", "setting": "[1]; [5]", "result": "almost complete disappearance"}, {"measurement": "improvement of the patient", "setting": "[1]; [5]", "result": "improvement"}, {"measurement": "neuropathic pain", "setting": "[1]; [5]", "result": "improvement"}, {"measurement": "skin desquamation", "setting": "[1]; [5]", "result": "improvement"}, {"measurement": "hyperkeratosis", "setting": "[1]; [6]", "result": "almost complete relief"}, {"measurement": "improvement of the patient", "setting": "[1]; [6]", "result": "improvement"}, {"measurement": "neuropathic pain", "setting": "[1]; [6]", "result": "almost complete relief"}, {"measurement": "hyperkeratosis", "setting": "[1]; [7]", "result": "almost complete disappearance"}, {"measurement": "improvement of the patient", "setting": "[1]; [7]", "result": "improvement"}, {"measurement": "neuropathic pain", "setting": "[1]; [7]", "result": "improvement"}, {"measurement": "skin desquamation", "setting": "[1]; [7]", "result": "improvement"}, {"measurement": "hyperkeratosis", "setting": "[1]; [8]", "result": "almost complete disappearance"}, {"measurement": "improvement of the patient", "setting": "[1]; [8]", "result": "improvement"}, {"measurement": "neuropathic pain", "setting": "[1]; [8]", "result": "improvement"}, {"measurement": "skin desquamation", "setting": "[1]; [8]", "result": "improvement"}, {"measurement": "pain and damages of the skin, in particular hyperkeratosis", "setting": "[1]; general statement, topical administration, patients suffering from hand-foot syndrome", "result": "reduces the pain and the damages of the skin"}, {"measurement": "sodium channel inhibition", "setting": "sodium channel", "result": "sodium channel inhibition"}, {"measurement": "cytotoxic effect of proteasome inhibitors", "setting": "[2]", "result": "enhances the cytotoxic effect"}]}]}
